From PubChem BioAssay AID493012 (Sanford-Burnham Center for Chemical Genomics, 2011)
The list shows a part of the results, in another mix than the full data. Calls of active or inactive are those of the source.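 Rule for the calls: active = inhibition of at least 40% at 20 µM, with no more than 30% in the related APOBEC3A deaminase screen; inactive = the rest.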

By UniProt entry, the sequences of proteins in these tests, tags left out.
UniProt Q9HC16, whole entry: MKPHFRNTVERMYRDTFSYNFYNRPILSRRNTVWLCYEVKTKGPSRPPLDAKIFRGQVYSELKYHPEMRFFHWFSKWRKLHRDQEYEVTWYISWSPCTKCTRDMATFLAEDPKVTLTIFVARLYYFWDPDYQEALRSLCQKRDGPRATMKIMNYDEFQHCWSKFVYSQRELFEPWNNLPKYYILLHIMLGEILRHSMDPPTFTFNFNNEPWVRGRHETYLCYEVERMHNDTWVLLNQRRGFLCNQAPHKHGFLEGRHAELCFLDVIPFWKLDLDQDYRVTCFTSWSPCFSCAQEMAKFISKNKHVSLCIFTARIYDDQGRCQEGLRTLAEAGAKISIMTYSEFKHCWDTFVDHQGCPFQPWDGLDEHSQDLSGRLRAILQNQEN

Target: DNA dC->dU-editing enzyme APOBEC-3G (Homo sapiens) (UniProt Q9HC16)
Assay: inhibition of human A3G ssDNA deamination – biochemical, fluorescence, single-stranded DNA substrate, uHTS, primary screen (AID 493012);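 note: plate controls were DMSO wells with A3G for no effect and wells lacking A3G enzyme for full effect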
Conditions: recombinant A3G, ssDNA deamination FAM/TAMRA fluorescence; at 20 µM; stronger effect = higher value

Row | Compound | inhibition
1 | CCCCCOc1ccc(NP(C)(=O)Oc2ccc(Cl)cc2Cl)cc1 (configuration not stated) | inactive: -2.98%
2 | CP(=O)(Nc1ccccc1)Oc1ccc(F)cc1 (configuration not stated) | inactive: -5.61%
3 | CCN(CC)CCCOC(=O)C(O)(c1ccccc1)C1CCCCC1 (configuration not stated) | inactive: -1.78%
4 | COc1ccc(OP(C)(=O)Nc2ccc(SC(F)(F)F)cc2)cc1 (configuration not stated) | inactive: -7.68%
5 | CCOC(=O)c1ccc(NP(C)(=O)Oc2ccc(F)cc2)cc1 (configuration not stated) | inactive: -2.21%
6 | CP(=O)(Nc1ccc(Cl)cc1Cl)Oc1ccccc1 (configuration not stated) | inactive: -2.66%
7 | CP(=O)(OCCOc1ccccc1)OCCOc1ccccc1 | inactive: -2.1%
8 | Cc1nc2ccc3ccccc3c2o1.O=[N+]([O-])c1cc([N+](=O)[O-])c(O)c([N+](=O)[O-])c1 | inactive: -1.75%
9 | COc1ccc(OP(C)(=O)Nc2ccccc2Br)cc1 (configuration not stated) | inactive: -3.37%
10 | COc1ccccc1OP(C)(=O)Nc1ccc(C)c(C)c1 (configuration not stated) | inactive: -4.67%
11 | Cc1cc(C)cc(OP(C)(=O)Nc2cccc(C(F)(F)F)c2)c1 (configuration not stated) | inactive: -6.61%
12 | CCc1ccc(OP(C)(=O)O)cc1 | inactive: -4.92%
13 | COc1ccccc1OP(C)(=O)Nc1ccc(C)cc1C (configuration not stated) | inactive: -0.043%
14 | CP(=O)(Nc1ccccn1)Oc1ccccc1 (configuration not stated) | inactive: -1.55%
15 | Cc1c(NP(C)(=O)Oc2ccc(C(C)C)cc2)c(=O)n(-c2ccccc2)n1C (configuration not stated) | inactive: -3.5%
16 | O=[N+]([O-])c1cc([N+](=O)[O-])c(Nc2ccccn2)c([N+](=O)[O-])c1 | inactive: -2.97%

Row | Compound | inhibition
17 | CN(C)CCOC(=O)C(O)(c1ccccc1)C1CCCC1 (configuration not stated) | inactive: 2%
18 | COc1ccc(OP(C)(=O)Nc2ccccn2)cc1 (configuration not stated) | inactive: -9.08%
19 | COc1ccccc1OP(C)(=O)Nc1ccc(Br)cc1 (configuration not stated) | inactive: -5.81%
20 | CN(C)C(=O)c1c([N+](=O)[O-])cc([N+](=O)[O-])cc1[N+](=O)[O-] | inactive: -5.02%
21 | CP(=O)(Nc1ccc(Cl)cc1)Oc1ccc(F)cc1 (configuration not stated) | inactive: 5.4%
22 | COc1ccccc1OP(C)(=O)Nc1ccccc1Br (configuration not stated) | inactive: -6.46%
23 | CC(C)(C)c1ccc(OP(C)(=O)O)cc1 | inactive: -0.755%
24 | CCc1ccc(OP(C)(=O)Nc2cccnc2)cc1 (configuration not stated) | inactive: -2.85%
25 | CP(=O)(Oc1ccccc1)N1CCOC1=O (configuration not stated) | inactive: -4.82%
26 | O=C(OCCCN1CCCC1)C(O)(c1ccccc1)C1CCCCC1 (configuration not stated) | inactive: -4.59%
27 | COc1ccccc1OP(C)(=O)Nc1c(C)n(C)n(-c2ccccc2)c1=O (configuration not stated) | inactive: 1.15%
28 | COc1ccc(OP(C)(=O)Nc2ccc(Br)cc2)cc1 (configuration not stated) | inactive: -4.99%
29 | CCN(CC)CC(O)COC(=O)C(O)(c1ccccc1)C1CCCCC1 (configuration not stated) | inactive: 0.052%
30 | CP(=O)(OC12CC3CC(CC(C3)C1)C2)OC12CC3CC(CC(C3)C1)C2 | inactive: 0.287%
31 | CCOC(=O)c1ccc(NP(C)(=O)Oc2ccc(Cl)cc2)cc1 (configuration not stated) | inactive: -0.77%
32 | Nc1ccc2c(ccc3cccnc32)n1.O=[N+]([O-])c1cc([N+](=O)[O-])c(O)c([N+](=O)[O-])c1 | inactive: 3.43%
